Measured values taken from ChEMBL document CHEMBL3259695 (J Med Chem, 2014).

Species: Rattus norvegicus
Assay: Selectivity ratio of Ki for dopamine D1-like receptor in Sprague-Dawley rat caudate putamen to Ki for dopamine D3 receptor in Sprague-Dawley rat ventral striatum
Format: tissue-based

CCCN(CC[C@]1(O)C[C@@H](NC(=O)c2ccc3ccccc3c2)C1)[C@@H]1C[C@H]1c1ccc(Cl)cc1
Ratio Ki: 9560

CCCN(CC[C@]1(O)C[C@@H](NC(=O)c2ccc3ccccc3c2)C1)[C@H]1C[C@@H]1c1ccc(Cl)cc1
Ratio Ki: 45

CCCN(CC[C@]1(O)C[C@@H](NC(=O)c2ccc3ccccc3c2)C1)C1CC1c1ccc(Cl)cc1 (mixture of isomers)
Ratio Ki: 479
